In test [1] the target is T1, isolated guinea pig ileum (Cavia porcellus, UniProt H0W1Z3).
T1 construct: isolated guinea pig ileum; from tissue; host or cells: isolated guinea pig ileum
The class given is cell-based.

Protein sequences, listed by entry. Tags and fused reporters are not part of them. Residues count along the entry.
UniProt H0W1Z3, 1-590: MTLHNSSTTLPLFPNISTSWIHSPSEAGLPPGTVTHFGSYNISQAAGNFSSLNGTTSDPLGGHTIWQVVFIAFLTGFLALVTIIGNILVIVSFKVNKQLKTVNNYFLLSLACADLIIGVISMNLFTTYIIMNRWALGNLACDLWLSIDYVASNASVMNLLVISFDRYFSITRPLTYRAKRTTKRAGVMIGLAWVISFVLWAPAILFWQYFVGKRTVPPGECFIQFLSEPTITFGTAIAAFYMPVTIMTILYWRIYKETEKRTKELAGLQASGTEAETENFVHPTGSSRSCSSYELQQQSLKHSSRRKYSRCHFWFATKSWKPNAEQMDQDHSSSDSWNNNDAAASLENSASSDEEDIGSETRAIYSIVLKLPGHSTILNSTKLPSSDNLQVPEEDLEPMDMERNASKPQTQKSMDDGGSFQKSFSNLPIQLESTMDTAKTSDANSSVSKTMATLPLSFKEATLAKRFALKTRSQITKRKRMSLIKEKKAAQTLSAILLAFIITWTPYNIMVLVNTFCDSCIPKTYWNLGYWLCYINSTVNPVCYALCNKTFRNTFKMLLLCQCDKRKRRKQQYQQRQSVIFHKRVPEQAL
UniProt P31389, whole entry: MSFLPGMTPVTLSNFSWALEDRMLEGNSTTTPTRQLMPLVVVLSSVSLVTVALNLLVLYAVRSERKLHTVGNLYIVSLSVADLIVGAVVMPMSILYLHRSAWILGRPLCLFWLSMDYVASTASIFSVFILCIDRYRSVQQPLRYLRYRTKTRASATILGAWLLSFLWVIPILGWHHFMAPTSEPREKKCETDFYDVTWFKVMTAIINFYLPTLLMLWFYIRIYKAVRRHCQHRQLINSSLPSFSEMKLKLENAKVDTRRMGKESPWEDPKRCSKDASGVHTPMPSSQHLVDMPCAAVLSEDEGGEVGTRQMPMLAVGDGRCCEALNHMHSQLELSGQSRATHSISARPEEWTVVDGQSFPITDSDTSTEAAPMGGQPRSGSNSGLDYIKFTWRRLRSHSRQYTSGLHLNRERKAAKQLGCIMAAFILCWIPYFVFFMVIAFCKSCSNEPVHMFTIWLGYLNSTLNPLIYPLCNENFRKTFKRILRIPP

Test [2] deals with T2, isolated guinea pig ileum (Cavia porcellus, UniProt P31389).
T2 construct: isolated guinea pig ileum; from tissue; host or cells: isolated guinea pig ileum
The test is classed as cell-based.

Regarding “2-[(2-dimethylaminoethyl) (p-methoxybenzyl)amino]-pyridine 1,2,3,6-tetrahydro-1,3-dimethyl-2,6-dioxopurin-7-acetate”, the “dose at which the action of acetylcholine is found to be inhibited” value in test [1] was determined as 2.5 µg/mL. In test [2], this substance came in with a pA2 of 10.05.

One may read the pA2 as the negative logarithm of the molar antagonist concentration that doubles the agonist concentration needed for the same response. Read a low pA2 as lower antagonist potency.

The record behind these values is patent US3962243A (Laboratories Made, S.A., priority 1974, dated 1976).
